# Yeast mating assay 1: variants of the scFv Ab-14

Values reported by Engelhart et al. 2022, doi:10.1038/s41597-022-01779-4 (FLAb copy).

Antigen: PDVDLGDISGINAS, a 14-residue peptide of the SARS-CoV-2 spike HR2 region.

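The parent was found by panning a naive human phage display library on the peptide. In library AAYL50, one, two or three CDR residues were substituted; doubles and triples were drawn at random. Affinity was read by AlphaSeq, a pooled yeast mating assay with surface-displayed partners. Binding brings cells together so that they mate, and sequencing counts the barcode pairs among the diploids. Each replicate has its own calibration line, from reference interactions of the BCL2 family. The assay was run in three technical replicates.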

Ab-14 is the parent antibody, in scFv form: VH, then a 15-residue (Gly4Ser)3 linker, then VL. The heavy chain is unchanged in all variants.
VH: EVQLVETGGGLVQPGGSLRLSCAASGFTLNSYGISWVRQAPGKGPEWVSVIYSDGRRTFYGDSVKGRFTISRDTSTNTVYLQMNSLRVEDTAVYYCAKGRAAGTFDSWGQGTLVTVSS
VL: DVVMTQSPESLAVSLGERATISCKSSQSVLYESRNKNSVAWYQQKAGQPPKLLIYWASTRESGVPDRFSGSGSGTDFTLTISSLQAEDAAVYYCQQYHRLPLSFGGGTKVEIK

The parent's light chain CDRs are KSSQSVLYESRNKNSVA, WASTRES, QQYHRLPLS; each variant's own CDRs replace them letter for letter.
Affinities are written as log10 Kd with Kd in nM; a lower number is a better binder.
A mean of the replicates is given; it leaves out those without a signal.
Where no diploid with the target was found in that replicate, the entry reads "nd": below detection, most likely a poor binder, though not proof of it.
The list is sorted by this average, lowest first, undetected variants last.
In this assay the parent's reference entry averaged 0.65; its copy inside this library read 1.68.

CDR-L1,CDR-L2,CDR-L3,log10 Kd (nM) by replicate,"log10 Kd (nM), mean"
KSSQSVLYEDRNKNSVA,WASTRES,QQYHRLEES,0.20 / 0.71 / 0.21,0.37
VSIQSVLYEGRNKNSVA,WASTRES,QQYHRLPLS,0.26 / 0.50 / 0.36,0.38
KDSQSVAYESRNKNSVA,WASTRES,DQYHRLPLS,0.37 / 0.41 / 0.44,0.41
KSSQEALYESRNKNSVA,WASTRES,QQYWRLPLS,0.29 / 0.59 / 0.38,0.42
KSEQSVWYESRNKNSVA,WASTRES,QQYHKLPLS,0.55 / 0.75 / 0.91,0.74
KSSQSVLYESRNKNSVA,WASTRES,QKYHRLQLS,0.74 / 0.97 / 1.00,0.90
KSSQSVLYESRNKNSVA,WASTRES,FQIHRLPLS,0.83 / 1.11 / 0.98,0.97
KSRQSVLYESRNMYSVA,WASTRES,QQYHRLPLS,0.86 / 0.85 / 1.21,0.98
KSSQSVLSESRNKNSVA,WASTRES,QQVHRLPYS,1.12 / 0.97 / 1.02,1.03
KSSQSVLYESYDKNGVA,WASTRES,QQYHRLPLS,1.31 / 1.27 / 1.06,1.21
KSSQSVLYEARNWNSVA,WASTRES,QQYHRLPLD,1.44 / 1.77 / 1.88,1.70
KSSQSWLYESRNKNSVA,WASTRES,QQYHRGNLS,1.79 / 1.54 / 2.33,1.89
KSFQSVLPESRPKNSVA,WASTRES,QQYHRLPLS,1.96 / 1.88 / 1.97,1.93
LSSQSVLYESRNKNSVA,WASTRQS,QEYHRLPLS,2.06 / 1.84 / 1.98,1.96
KSSQSYLYESRNKNMVA,WASHRES,QQYHRLPLS,2.17 / 2.00 / 2.32,2.16
KSFQSVMYESRNKNSVA,WASTVES,QQYHRLPLS,2.33 / 2.63 / 2.46,2.47
KSSQSVLNEQRNKNSVA,WASTRES,QQMHRLPLS,2.77 / 2.64 / 2.86,2.75
DSSQSVLYESRNKNSVA,WMSTRES,QQYHRLQLS,3.40 / nd / nd,3.40
KDSQSVLYESRNKNSVA,WISTRES,QQVHRLPLS,3.48 / 3.34 / 3.53,3.45
KSSGSGLYESRNKNSVA,WDSTRES,QQYHRLPLS,4.03 / 3.85 / 3.92,3.93
KSSQQILYESRNKNSVA,WISTRES,QQYHRLPLS,3.66 / 3.57 / 4.86,4.03
KSSQSVLYESPEKNSVA,WASTRES,QQYHRLHLS,nd / 4.32 / nd,4.32
KSSQSLLYESRPKNSVA,WASTRES,QQMHRLPLS,5.00 / 3.72 / nd,4.36
KSSQSVLYESRNKNSVA,WHSTRCS,QTYHRLPLS,4.39 / nd / nd,4.39
DSSQSVLYESRNKNSVA,WASTRES,QFYHRLPYS,4.12 / 4.07 / 5.50,4.56
LSSQSVLYGSRNKNSVA,WASTRES,QQYHRLPSS,nd / 4.75 / 4.68,4.72
KQSQSVGYESRNKNSVA,WNSTRES,QQYHRLPLS,nd / nd / 5.48,5.48
KSSQSVLYESRNKNSVA,WASTRES,QQTERGPLS,7.21 / 4.21 / 5.27,5.57
KNSQSVLYESRNKNSVA,WASTRAS,QQYHRLPWS,nd / nd / nd,nd
KSSQCVLYESRNKNSFA,WASTRES,QQYHRLPLS,nd / nd / nd,nd
KSSQRVLYESRNKNSVA,WASTRES,QQYHTLPHS,nd / nd / nd,nd
KSSQSVLYISRNKNSVA,WMSTRNS,QQYHRLPLS,nd / nd / nd,nd
KSSQSVLYEYRNKNSVA,WASCREG,QQYHRLPLS,nd / nd / nd,nd
KSSQSVLYESRNKNSVA,WASTWES,AQYHRLPLS,nd / nd / nd,nd
KSSQSVLRESGNQNSVA,WASTRES,QQYHRLPLS,nd / nd / nd,nd
KSSQSVLYESRNKNSVA,WASTMES,QQYHRDPCS,nd / nd / nd,nd
KSSQSVLYESRNKDSVD,WASTRES,QQYHSLPLS,nd / nd / nd,nd
KSSQSVLYESRNKNSVA,WASTRPS,QQPHRLPLS,nd / nd / nd,nd
KSSKSVLYESRNKNVVA,WASTRES,FQYHRLPLS,nd / nd / nd,nd
KSSQKVLYESINKNSVA,WASTRES,QQYHRLKLS,nd / nd / nd,nd

Excerpt, the final 4 entries:

| CDR-L1 | CDR-L2 | CDR-L3 | log10 Kd (nM) by replicate | log10 Kd (nM), mean |
|---|---|---|---|---|
| KSSQSVLYESRNKDSVD | WASTRES | QQYHSLPLS | nd / nd / nd | nd |
| KSSQSVLYESRNKNSVA | WASTRPS | QQPHRLPLS | nd / nd / nd | nd |
| KSSKSVLYESRNKNVVA | WASTRES | FQYHRLPLS | nd / nd / nd | nd |
| KSSQKVLYESINKNSVA | WASTRES | QQYHRLKLS | nd / nd / nd | nd |

Three control strains display no target. For library AAYL50, 18% of the pairings with them gave a signal, with a median of 4.19 and one signal in twenty below 2.99, so weak values seen in few replicates may be background.